Source: PubChem BioAssay (NCATS)
Where “and” joins values, the source holds several entries; their conditions need not be identical. Identical values can stand only once. The list shows a part of the results, in another mix than the full data. Records with an inconclusive call do not appear. Calls of active or inactive are those of the source. Unless noted, calls follow the shape of the dose curve; as a rule, active = well fitted curve in the direction sought with a large enough effect; inconclusive = small, poorly fitted or top-dose-only effect, or another doubt; inactive = no such curve, though single readings can be large; an effect the other way counts as inactive or inconclusive.

Amino acid sequences for entries named in this document (tags omitted).
UniProt Q9R1A7, whole entry: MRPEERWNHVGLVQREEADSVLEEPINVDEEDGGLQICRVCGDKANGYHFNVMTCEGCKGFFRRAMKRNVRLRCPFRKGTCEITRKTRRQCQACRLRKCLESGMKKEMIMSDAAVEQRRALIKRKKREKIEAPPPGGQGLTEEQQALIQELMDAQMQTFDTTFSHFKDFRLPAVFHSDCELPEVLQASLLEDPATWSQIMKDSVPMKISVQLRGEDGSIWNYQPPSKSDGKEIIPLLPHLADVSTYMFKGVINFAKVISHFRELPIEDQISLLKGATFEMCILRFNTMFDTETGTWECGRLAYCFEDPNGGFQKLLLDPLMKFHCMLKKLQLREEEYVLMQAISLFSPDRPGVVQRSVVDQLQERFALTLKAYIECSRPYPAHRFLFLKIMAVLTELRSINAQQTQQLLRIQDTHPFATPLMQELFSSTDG

Columns and labels:
C33A = assay: Primary qHTS to identify gynecologic anti-cancer compounds using libraries of approved drugs and bioactive compounds (AID 1345084); conditions: Gynecologic cancer cell panel viability, ATPlite luminescence, 48 h; at 116 µM (top of the series) unless noted; also: % is scaled to controls: 0 for no effect and ±100 for the full control effect; nearly all actives have a fitted effect of over 55% in size
How it was run: (§1)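 In this quantitative HTS, cell killing is estimated from loss of ATP-dependent luciferase light. Cells see five compound concentrations over a 48 h exposure.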

CASKI = assay: as above; conditions: Gynecologic cancer cell panel viability, ATPlite luminescence, 48 h; at 116 µM (top of the series) unless noted
How it was run: as §1

Es-2 = assay: as above; conditions: Gynecologic cancer cell panel viability, ATPlite luminescence, 48 h; at 116 µM (top of the series) unless noted
How it was run: as §1

HeLa = assay: as above; conditions: Gynecologic cancer cell panel viability, ATPlite luminescence, 48 h; at 116 µM (top of the series) unless noted
How it was run: as §1

Hek293T = assay: as above; conditions: Gynecologic cancer cell panel viability, ATPlite luminescence, 48 h, control line for the selectivity index; at 57.5 µM (top of the series) unless noted
How it was run: as §1

JEG-3 = assay: as above; conditions: Gynecologic cancer cell panel viability, ATPlite luminescence, 48 h; at 116 µM (top of the series) unless noted
How it was run: as §1

OV90 = assay: as above; conditions: Gynecologic cancer cell panel viability, ATPlite luminescence, 48 h; at 57.5 µM (top of the series) unless noted
How it was run: as §1

PA-1 = assay: as above; conditions: Gynecologic cancer cell panel viability, ATPlite luminescence, 48 h; at 116 µM (top of the series) unless noted
How it was run: as §1

SKOV3 = assay: as above; conditions: Gynecologic cancer cell panel viability, ATPlite luminescence, 48 h; at 57.5 µM (top of the series) unless noted
How it was run: as §1

Tov-21-G = assay: as above; conditions: Gynecologic cancer cell panel viability, ATPlite luminescence, 48 h; at 116 µM (top of the series) unless noted
How it was run: as §1

Tov112D = assay: as above; conditions: Gynecologic cancer cell panel viability, ATPlite luminescence, 48 h; at 116 µM (top of the series) unless noted
How it was run: as §1

[1] = target: Nuclear receptor subfamily 1 group I member 2 (Rattus norvegicus) (UniProt Q9R1A7); assay: qHTS assay for small molecule activators of the rat pregnane X receptor (rPXR) signaling pathway (AID 651751; call rule not given here; also: 0% is about no effect); conditions: rPXR reporter cells, luciferase (One-Glo), 24 h
[2] = qHTS assay for small molecule activators of the human pregnane X receptor (PXR) signaling pathway (AID 720659; call rule not given here; also: 0% is about no effect); conditions: DPX-2 HepG2 CYP3A4-luciferase, 24 h; at 92.3 µM (top of the series)
CAOV3 = assay: Primary qHTS to identify gynecologic anti-cancer compounds using libraries of approved drugs and bioactive compounds (AID 1345084); conditions: Gynecologic cancer cell panel viability, ATPlite luminescence, 48 h; at 116 µM (top of the series); also: % is scaled to controls: 0 for no effect and ±100 for the full control effect; nearly all actives have a fitted effect of over 55% in size
How it was run: as §1

astro = assay: Drug repurposing screens with cells derived from glioblastoma tumor samples (AID 1345199); conditions: viability, ATP luminescence, 48 h; at 91.6 µM (top of the series) unless noted; also: % is scaled to controls: 0 for no effect and ±100 for the full control effect; nearly all actives have a fitted effect of over 40% in size
How it was run: (§2)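 Primary testing used CD133+ neurospheres from four GBM patients, seven concentrations, 48 h exposure and ATP-based viability; confirmation added three slower-growing patient lines.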

UISO = assay: qHTS assay to identify novel small-molecules to repurpose for Merkel cell carcinoma treatment (AID 1296009); conditions: MCC and control cell lines, CellTiter-Glo viability, 72 h; at 92.7 µM (top of the series); also: % is scaled to controls: 0 for no effect and ±100 for the full control effect; nearly all actives have a fitted effect of over 60% in size
How it was run: (§3)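 Cell viability, measured as CellTiter-Glo luminescence, was normalized between DMSO and no-cell wells. The cells had been exposed to 8- or 11-point compound dilutions for 72 hr at 37 degree celsius.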

WaGa = assay: as above; conditions: MCC and control cell lines, CellTiter-Glo viability, 72 h; at 92.7 µM (top of the series)
How it was run: as §3

[3] = Drug repurposing screens with cells derived from glioblastoma tumor samples (AID 1345199); conditions: GBM patient neurospheres viability, ATP luminescence, 48 h; Potency: tumour line A; series mostly up to 99.2 µM; also: % is scaled to controls: 0 for no effect and ±100 for the full control effect; nearly all actives have a fitted effect of over 40% in size
How it was run: as §2

CN(CCCl)CCCl
inactive: activity change, negative = cytotoxicity (C33A) -6.64% [at 57.5 µM] | activity change, negative = cytotoxicity (CASKI) 2.38% [at 57.5 µM] | activity change, negative = cytotoxicity (Es-2) 8.75% [at 57.5 µM] | activity change, negative = cytotoxicity (HeLa) -4.23% [at 57.5 µM] | activity change, negative = cytotoxicity (Hek293T) -2.98% | activity change, negative = cytotoxicity (JEG-3) -27.3% [at 57.5 µM] | activity change, negative = cytotoxicity (OV90) 12.6% | activity change, negative = cytotoxicity (PA-1) -18.8% [at 57.5 µM] | activity change, negative = cytotoxicity (SKOV3) 0% | activity change, negative = cytotoxicity (Tov-21-G) -11.1% [at 57.5 µM] | activity change, negative = cytotoxicity (Tov112D) 12.9% [at 57.5 µM] | max response [1] -22.1% | activation [2] -4.67%

CCC(=O)N(c1ccccc1)C1(COC)CCN(CCc2cccs2)CC1
inactive: activity change, negative = cytotoxicity (C33A) -16.7% | activity change, negative = cytotoxicity (CAOV3) -14.7% | activity change, negative = cytotoxicity (CASKI) 0.916% | activity change, negative = cytotoxicity (Es-2) -0.476% | activity change, negative = cytotoxicity (HeLa) -26% | activity change, negative = cytotoxicity (JEG-3) -4.51% | activity change, negative = cytotoxicity (PA-1) -4.56% | activity change, negative = cytotoxicity (SKOV3) -8.27% [at 116 µM] | activity change, negative = cytotoxicity (Tov-21-G) -1.78% | activity change, negative = cytotoxicity (Tov112D) -22.9% | activity, negative = cell killing (astro) -29%

CCC(=O)N(c1ccccc1)C1(COC)CCN(CCn2nnn(CC)c2=O)CC1
inactive: activity change, negative = cytotoxicity (UISO) -4.93% | activity change, negative = cytotoxicity (WaGa) -9.07% | activity change, negative = cytotoxicity (C33A) 1.21% | activity change, negative = cytotoxicity (CAOV3) 1.48% | activity change, negative = cytotoxicity (CASKI) 7.69% | activity change, negative = cytotoxicity (Es-2) 2.01% | activity change, negative = cytotoxicity (HeLa) -15.8% | activity change, negative = cytotoxicity (Hek293T) -3.21% [at 116 µM] | activity change, negative = cytotoxicity (JEG-3) 6.61% | activity change, negative = cytotoxicity (OV90) -17.1% [at 116 µM] | activity change, negative = cytotoxicity (PA-1) 8.05% | activity change, negative = cytotoxicity (Tov-21-G) -0.614% | activity change, negative = cytotoxicity (Tov112D) -7.23% | Potency [3] | activity, negative = cell killing (astro) -5.11%

CCC(=O)N(c1ccccc1)C1CCN(CCc2ccccc2)CC1
inactive: activity, negative = cell killing (astro) -17.1% [at 45.9 µM]

O=[N+]([O-])C(Cl)(Cl)Cl
inactive: max response [1] 3.17% and 1% | activation [2] -4.42% and 8.31%
